The entries are a selection whose mix differs from that of the whole data set. Some salts or complexes appear as unconnected parts, following the source record. Activity calls are given as the source filed them. No stated cut-off is given here; in the data, active means inhibition above about 43%; inactive means the rest.

By UniProt entry, the sequences of proteins in these tests, tags left out.
UniProt O75385, whole entry: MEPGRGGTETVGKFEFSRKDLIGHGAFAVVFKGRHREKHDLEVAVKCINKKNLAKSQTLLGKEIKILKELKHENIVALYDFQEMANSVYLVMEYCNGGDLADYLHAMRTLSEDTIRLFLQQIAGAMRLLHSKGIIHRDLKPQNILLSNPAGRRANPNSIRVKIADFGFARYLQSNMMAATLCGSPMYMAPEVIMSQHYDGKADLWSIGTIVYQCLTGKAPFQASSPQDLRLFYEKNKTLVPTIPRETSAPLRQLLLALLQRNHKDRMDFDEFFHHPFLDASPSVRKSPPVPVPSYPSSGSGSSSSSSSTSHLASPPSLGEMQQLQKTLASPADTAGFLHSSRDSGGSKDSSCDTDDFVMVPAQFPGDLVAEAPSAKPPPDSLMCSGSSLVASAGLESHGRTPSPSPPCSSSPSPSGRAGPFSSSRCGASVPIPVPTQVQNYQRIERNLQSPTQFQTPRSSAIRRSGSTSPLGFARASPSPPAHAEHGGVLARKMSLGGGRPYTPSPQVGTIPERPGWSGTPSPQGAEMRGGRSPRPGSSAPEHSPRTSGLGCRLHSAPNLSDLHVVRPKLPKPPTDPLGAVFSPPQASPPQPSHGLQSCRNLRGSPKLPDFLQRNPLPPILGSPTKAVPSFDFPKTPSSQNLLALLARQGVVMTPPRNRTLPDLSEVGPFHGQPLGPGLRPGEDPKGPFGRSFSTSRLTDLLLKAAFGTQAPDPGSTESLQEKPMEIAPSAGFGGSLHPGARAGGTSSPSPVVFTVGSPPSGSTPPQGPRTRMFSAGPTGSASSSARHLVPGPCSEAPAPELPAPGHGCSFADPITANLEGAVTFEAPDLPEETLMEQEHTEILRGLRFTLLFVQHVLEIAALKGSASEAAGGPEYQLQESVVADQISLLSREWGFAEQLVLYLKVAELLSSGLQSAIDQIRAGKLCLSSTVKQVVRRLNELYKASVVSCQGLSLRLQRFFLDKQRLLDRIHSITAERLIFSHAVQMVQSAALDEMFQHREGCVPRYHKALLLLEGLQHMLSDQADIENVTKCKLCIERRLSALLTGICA

Experimental findings from PubChem BioAssay AID1259251 (The Scripps Research Institute Molecular Screening Center, 2017) are described below.

The assay addresses Serine/threonine-protein kinase ULK1 (Homo sapiens) (UniProt O75385). Description: ULK1 kinase inhibitors, primary screen, biochemical, AlphaScreen (AID 1259251).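 Further: 0% = median of compound wells and 100% = no enzyme.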 Conditions: AlphaScreen Atg13 phosphorylation by ULK1, luminescence; at 5.96 µM; stronger effect = higher value.
Broadly, the inhibition is the change of the read-out against control, counted positive when it falls. With `O=[N+]([O-])c1cc([N+](=O)[O-])c(O)c([N+](=O)[O-])c1`, the inhibition is inactive: -7.32%.

In the case of `OCCSCCO`, the inhibition is inactive: -3.84%.

Turning to `CN1CCCC1=C1c2cc([N+](=O)[O-])cc([N+](=O)[O-])c2-c2c1cc([N+](=O)[O-])cc2[N+](=O)[O-]`, the inhibition was inactive: 18.7%.

As to `C/C1=C2N=C(/C=C3N=C(/C(C)=C4\[N-][C@@](C)([C@@H]5N=C1[C@](C)(CCC(=O)NC[C@@H](C)OP(=O)(O)O[C@H]1[C@@H](O)[C@@H](n6cnc7cc(C)c(C)cc76)O[C@@H]1CO)[C@H]5CC(N)=O)[C@@](C)(CC(N)=O)[C@@H]4CCC(N)=O)[C@@](C)(CC(N)=O)[C@@H]\3CCC(N)=O)C(C)(C)[C@@H]/2CCC(N)=O.[C-]#N.[Co+3]`, the inhibition is inactive: 33.2%.

Take `O=[N+]([O-])c1cnc(Nc2c([N+](=O)[O-])cc([N+](=O)[O-])cc2[N+](=O)[O-])c([N+](=O)[O-])c1`: the inhibition is inactive: 4.8%.
